Experimental data reported in patent US20260384438A1, “PYRROLOPYRIMIDINE CARBOXAMIDES” (published 2026).

Sequences of proteins named here, by UniProt entry; tags and fusion partners are left off.
UniProt P31749, whole entry: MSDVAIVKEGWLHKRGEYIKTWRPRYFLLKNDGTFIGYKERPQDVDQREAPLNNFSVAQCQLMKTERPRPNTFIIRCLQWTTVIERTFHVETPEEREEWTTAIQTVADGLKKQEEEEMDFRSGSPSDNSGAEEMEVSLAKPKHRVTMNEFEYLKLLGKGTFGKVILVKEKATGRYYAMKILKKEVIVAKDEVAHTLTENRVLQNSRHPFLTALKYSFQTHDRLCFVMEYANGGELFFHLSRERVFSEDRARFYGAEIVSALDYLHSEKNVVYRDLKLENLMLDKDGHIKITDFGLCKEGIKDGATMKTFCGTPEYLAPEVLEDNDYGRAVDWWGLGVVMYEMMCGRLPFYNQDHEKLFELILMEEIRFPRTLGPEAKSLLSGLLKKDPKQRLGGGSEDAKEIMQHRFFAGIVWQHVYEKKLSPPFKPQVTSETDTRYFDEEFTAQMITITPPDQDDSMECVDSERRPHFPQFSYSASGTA
UniProt Q9HCP0, whole entry: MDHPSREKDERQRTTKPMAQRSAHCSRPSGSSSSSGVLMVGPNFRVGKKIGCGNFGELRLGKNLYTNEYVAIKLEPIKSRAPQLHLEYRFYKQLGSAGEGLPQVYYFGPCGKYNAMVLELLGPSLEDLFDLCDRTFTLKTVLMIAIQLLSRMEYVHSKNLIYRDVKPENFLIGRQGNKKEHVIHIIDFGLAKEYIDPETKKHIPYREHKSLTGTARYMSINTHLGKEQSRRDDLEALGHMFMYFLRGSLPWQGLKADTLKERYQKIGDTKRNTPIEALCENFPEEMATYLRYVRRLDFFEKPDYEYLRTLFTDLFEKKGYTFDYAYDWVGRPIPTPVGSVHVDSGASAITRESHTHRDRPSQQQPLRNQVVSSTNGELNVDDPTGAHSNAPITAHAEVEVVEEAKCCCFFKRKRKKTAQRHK
UniProt Q05397, whole entry: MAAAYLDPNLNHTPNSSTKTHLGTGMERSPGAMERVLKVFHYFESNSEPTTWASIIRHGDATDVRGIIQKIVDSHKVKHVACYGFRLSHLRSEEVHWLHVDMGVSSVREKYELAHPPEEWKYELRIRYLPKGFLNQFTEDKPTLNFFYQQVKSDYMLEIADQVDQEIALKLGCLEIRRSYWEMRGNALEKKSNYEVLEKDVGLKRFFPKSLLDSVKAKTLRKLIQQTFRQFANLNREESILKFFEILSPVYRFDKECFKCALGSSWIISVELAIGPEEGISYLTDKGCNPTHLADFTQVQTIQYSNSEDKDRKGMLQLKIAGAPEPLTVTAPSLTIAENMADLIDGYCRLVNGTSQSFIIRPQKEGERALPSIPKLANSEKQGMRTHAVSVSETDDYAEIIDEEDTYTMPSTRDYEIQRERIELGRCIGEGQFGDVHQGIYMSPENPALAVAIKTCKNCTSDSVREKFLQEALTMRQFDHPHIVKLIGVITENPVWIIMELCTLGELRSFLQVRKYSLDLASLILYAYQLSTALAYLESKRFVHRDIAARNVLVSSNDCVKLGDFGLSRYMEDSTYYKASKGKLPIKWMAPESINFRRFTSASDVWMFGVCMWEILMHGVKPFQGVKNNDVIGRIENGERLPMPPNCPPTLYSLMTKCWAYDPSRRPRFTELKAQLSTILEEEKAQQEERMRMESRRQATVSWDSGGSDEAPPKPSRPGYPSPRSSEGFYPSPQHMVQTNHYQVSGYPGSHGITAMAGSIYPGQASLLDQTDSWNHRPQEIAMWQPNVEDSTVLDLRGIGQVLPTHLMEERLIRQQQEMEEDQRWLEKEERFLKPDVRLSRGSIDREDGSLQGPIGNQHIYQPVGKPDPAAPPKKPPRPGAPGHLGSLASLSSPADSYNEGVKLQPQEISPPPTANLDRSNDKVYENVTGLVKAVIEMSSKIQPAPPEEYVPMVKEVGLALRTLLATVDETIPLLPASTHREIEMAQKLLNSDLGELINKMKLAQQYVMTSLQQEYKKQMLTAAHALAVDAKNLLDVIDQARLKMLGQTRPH
UniProt Q9Y463, whole entry: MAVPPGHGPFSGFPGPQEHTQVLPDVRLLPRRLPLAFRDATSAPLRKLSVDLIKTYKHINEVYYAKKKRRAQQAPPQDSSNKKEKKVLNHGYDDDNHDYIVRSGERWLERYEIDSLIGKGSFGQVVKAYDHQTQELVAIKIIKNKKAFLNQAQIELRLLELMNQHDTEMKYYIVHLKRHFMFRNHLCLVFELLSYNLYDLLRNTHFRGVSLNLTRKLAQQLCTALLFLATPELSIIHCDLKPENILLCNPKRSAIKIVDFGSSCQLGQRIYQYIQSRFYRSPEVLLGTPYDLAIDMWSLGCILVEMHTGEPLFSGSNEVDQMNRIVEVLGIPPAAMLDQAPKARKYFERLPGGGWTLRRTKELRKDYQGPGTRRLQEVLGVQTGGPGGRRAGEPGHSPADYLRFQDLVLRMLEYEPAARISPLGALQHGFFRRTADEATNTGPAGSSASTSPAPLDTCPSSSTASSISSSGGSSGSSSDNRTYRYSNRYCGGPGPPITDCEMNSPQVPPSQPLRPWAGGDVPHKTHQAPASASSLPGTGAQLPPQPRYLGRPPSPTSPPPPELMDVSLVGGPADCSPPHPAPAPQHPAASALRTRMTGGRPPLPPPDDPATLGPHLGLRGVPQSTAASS
UniProt Q8IWQ3, whole entry: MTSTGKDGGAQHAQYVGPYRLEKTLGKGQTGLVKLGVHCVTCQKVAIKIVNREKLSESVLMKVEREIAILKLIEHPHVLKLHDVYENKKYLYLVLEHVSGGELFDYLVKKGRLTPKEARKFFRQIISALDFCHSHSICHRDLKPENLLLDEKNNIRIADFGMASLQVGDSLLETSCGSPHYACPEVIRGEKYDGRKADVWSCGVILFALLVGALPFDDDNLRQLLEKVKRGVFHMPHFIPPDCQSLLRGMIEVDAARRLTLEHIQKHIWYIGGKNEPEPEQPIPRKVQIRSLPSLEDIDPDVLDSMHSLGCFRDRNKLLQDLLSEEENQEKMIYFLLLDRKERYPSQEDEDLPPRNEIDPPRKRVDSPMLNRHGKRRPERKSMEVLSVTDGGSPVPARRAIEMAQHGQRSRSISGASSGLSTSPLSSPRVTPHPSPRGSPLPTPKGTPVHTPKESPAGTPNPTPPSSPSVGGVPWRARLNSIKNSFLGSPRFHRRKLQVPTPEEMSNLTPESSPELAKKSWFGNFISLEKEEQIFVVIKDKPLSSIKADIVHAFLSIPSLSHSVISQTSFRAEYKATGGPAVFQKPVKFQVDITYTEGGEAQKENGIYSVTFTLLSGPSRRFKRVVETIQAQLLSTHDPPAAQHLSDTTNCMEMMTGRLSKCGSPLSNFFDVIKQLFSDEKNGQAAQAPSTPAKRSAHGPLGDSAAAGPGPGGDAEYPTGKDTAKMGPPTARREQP
UniProt Q02779, whole entry: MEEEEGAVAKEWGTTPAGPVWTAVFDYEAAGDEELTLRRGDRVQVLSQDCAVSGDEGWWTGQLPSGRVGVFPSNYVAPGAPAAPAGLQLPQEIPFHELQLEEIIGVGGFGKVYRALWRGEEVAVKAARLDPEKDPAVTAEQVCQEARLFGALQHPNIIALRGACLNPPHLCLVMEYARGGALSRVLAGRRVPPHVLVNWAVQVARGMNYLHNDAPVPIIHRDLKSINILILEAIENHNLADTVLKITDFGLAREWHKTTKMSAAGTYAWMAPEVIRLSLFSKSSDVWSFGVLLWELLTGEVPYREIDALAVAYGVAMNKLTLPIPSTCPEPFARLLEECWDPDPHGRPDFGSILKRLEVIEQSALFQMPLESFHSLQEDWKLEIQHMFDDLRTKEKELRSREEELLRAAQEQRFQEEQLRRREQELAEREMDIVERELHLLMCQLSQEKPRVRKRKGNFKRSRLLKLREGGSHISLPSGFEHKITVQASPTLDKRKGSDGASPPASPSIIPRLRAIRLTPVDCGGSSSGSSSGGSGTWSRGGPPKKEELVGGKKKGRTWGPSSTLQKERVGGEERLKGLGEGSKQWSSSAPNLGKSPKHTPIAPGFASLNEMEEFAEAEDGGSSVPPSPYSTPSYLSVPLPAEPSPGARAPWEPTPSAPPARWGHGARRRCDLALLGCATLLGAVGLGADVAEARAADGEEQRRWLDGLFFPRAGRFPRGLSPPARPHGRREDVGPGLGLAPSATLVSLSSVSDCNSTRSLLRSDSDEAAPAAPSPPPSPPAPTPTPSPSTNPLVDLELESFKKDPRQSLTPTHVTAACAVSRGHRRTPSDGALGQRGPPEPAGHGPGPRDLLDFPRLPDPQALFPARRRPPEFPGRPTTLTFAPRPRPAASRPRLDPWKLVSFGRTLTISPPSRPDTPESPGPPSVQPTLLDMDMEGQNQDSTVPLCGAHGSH
UniProt O60674, whole entry: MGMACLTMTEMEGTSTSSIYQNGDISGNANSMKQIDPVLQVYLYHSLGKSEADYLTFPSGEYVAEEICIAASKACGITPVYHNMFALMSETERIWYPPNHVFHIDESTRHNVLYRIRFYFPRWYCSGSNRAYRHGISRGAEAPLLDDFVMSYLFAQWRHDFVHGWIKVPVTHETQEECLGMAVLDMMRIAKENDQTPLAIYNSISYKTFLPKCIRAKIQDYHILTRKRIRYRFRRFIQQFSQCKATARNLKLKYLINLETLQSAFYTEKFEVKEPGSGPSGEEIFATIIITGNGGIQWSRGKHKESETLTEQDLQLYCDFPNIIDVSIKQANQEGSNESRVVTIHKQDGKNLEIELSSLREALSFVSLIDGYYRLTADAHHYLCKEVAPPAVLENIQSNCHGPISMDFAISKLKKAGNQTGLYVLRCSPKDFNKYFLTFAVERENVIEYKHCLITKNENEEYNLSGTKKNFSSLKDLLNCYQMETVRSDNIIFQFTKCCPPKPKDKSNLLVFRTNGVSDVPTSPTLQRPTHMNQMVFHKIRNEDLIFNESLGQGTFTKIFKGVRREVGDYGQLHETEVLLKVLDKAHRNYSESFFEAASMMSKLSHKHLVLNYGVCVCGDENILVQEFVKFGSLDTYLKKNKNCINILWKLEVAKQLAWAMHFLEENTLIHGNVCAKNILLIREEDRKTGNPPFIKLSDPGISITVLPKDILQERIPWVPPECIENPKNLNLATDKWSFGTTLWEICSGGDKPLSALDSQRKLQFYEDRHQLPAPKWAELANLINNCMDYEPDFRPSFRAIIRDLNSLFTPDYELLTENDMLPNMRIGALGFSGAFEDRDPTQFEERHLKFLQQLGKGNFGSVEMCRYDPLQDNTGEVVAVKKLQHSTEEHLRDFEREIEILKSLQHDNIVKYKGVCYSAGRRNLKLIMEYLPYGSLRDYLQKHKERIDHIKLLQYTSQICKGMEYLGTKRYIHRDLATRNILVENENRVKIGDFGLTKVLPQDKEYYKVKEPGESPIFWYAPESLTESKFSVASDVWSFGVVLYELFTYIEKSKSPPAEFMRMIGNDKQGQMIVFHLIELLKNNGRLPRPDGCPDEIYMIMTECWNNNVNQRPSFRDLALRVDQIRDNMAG
UniProt P49674, whole entry: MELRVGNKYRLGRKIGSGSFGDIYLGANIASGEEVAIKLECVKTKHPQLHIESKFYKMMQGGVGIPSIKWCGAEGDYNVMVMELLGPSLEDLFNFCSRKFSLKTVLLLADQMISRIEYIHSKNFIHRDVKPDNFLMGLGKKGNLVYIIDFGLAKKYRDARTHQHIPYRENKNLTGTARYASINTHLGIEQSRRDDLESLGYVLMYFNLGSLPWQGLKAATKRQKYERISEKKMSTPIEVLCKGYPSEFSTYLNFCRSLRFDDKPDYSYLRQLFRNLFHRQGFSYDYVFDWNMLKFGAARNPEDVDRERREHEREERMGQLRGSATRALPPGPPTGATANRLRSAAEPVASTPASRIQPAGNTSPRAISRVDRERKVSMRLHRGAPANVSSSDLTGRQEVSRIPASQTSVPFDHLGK
UniProt Q13177, whole entry: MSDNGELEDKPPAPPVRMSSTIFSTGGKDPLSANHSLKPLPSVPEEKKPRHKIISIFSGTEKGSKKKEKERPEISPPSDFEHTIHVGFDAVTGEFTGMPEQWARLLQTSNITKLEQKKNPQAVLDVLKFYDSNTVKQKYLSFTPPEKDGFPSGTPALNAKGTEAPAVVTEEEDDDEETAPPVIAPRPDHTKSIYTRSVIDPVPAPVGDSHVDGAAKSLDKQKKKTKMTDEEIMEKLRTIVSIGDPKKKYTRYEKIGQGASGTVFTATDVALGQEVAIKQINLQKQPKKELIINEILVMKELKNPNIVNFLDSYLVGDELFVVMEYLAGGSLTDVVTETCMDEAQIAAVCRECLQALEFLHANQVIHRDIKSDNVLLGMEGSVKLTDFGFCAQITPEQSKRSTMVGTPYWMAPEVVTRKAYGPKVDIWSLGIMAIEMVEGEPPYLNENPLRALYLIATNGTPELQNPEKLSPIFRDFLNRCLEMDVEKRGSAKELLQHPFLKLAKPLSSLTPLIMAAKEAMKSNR

Assays:
Assay in all cases: KAT chemical proteomics
PIKFYVE = PIKFYVE (Homo sapiens, UniProt Q9Y2I7)
IRAK4 = IRAK4 (Homo sapiens, UniProt Q9NWZ3)
ULK3 = ULK3 (Homo sapiens, UniProt Q6PHR2)
CSNK1G2 = CSNK1G2 (Homo sapiens, UniProt P78368)
MARK4 = MARK4 (Homo sapiens, UniProt Q96L34)
CDK8 = CDK8 (Homo sapiens, UniProt P49336)
ROCK1 = ROCK1 (Homo sapiens, UniProt Q13464)
CDC42BPB = CDC42BPB (Homo sapiens, UniProt Q9Y5S2)
AKT1 = AKT1 (Homo sapiens, UniProt P31749)
MAP3K4 = MAP3K4 (Homo sapiens, UniProt Q9Y6R4)
JAK1 = JAK1 (Homo sapiens, UniProt P23458)
CSNK1G1 = CSNK1G1 (Homo sapiens, UniProt Q9HCP0)
PKN3 = PKN3 (Homo sapiens, UniProt Q6P5Z2)
MAP4K1 = MAP4K1 (Homo sapiens, UniProt Q92918)
SIK2 = SIK2 (Homo sapiens, UniProt Q9H0K1)
MAP2K3 = MAP2K3 (Homo sapiens, UniProt P46734)
TRIM27 = system: TRIM27
CAMK4 = CAMK4 (Homo sapiens, UniProt Q16566)
CDC42BPG = CDC42BPG (Homo sapiens, UniProt Q6DT37)
bRAF = bRAF (Homo sapiens, UniProt P15056)
MAP4K3 = MAP4K3 (Homo sapiens, UniProt Q8IVH8)
ALK = ALK (Homo sapiens, UniProt Q9UM73)
DMPK = DMPK (Homo sapiens, UniProt Q09013)
MARK3 = MARK3 (Homo sapiens, UniProt P27448)
STK16 = STK16 (Homo sapiens, UniProt O75716)
ULK1 = ULK1 (Homo sapiens, UniProt O75385)
PTK2 = PTK2 (Homo sapiens, UniProt Q05397)
DYRK1B = DYRK1B (Homo sapiens, UniProt Q9Y463)
AKAP13 = system: AKAP13
BRSK2 = BRSK2 (Homo sapiens, UniProt Q8IWQ3)
MAP3K10 = MAP3K10 (Homo sapiens, UniProt Q02779)
ARAF = ARAF (Homo sapiens, UniProt P10398)
FGR = FGR (Homo sapiens, UniProt P09769)
STK17B = STK17B (Homo sapiens, UniProt O94768)
JAK2 = JAK2 (Homo sapiens, UniProt O60674)
CDK4 = CDK4 (Homo sapiens, UniProt P11802)
PRKAB1 = system: PRKAB1
IRAK3 = IRAK3 (Homo sapiens, UniProt Q9Y616)
CSNK1E = CSNK1E (Homo sapiens, UniProt P49674)
PRKCD = PRKCD (Homo sapiens, UniProt Q05655)
PAK2 = PAK2 (Homo sapiens, UniProt Q13177)

Cc1nc(C(F)(F)F)c2c(C(N)=O)c(N)n(-c3c(C)ccc(O)c3C)c2n1 (single isomer, unassigned)
RB50 (PIKFYVE): >50 µM
RB50 (IRAK4): >50 µM
RB50 (ULK3): >50 µM
RB50 (CSNK1G2): >50 µM
RB50 (MARK4): >50 µM
RB50 (CDK8): >50 µM
RB50 (ROCK1): >50 µM
RB50 (CDC42BPB): >50 µM
RB50 (AKT1): >50 µM
RB50 (MAP3K4): >50 µM
RB50 (JAK1): >50 µM
RB50 (CSNK1G1): >50 µM
RB50 (PKN3): 163 nM
RB50 (MAP4K1): >50 µM
RB50 (SIK2): >50 µM
RB50 (MAP2K3): >50 µM
RB50 (TRIM27): >50 µM
RB50 (CAMK4): >50 µM
RB50 (CDC42BPG): >50 µM
RB50 (bRAF): 2.74 µM
RB50 (MAP4K3): >50 µM
RB50 (ALK): >50 µM
RB50 (DMPK): >50 µM
RB50 (MARK3): >50 µM
RB50 (STK16): >50 µM
RB50 (ULK1): >50 µM
RB50 (PTK2): >50 µM
RB50 (DYRK1B): 308 nM
RB50 (AKAP13): >50 µM
RB50 (BRSK2): >50 µM
RB50 (MAP3K10): >50 µM
RB50 (ARAF): >50 µM
RB50 (FGR): 387 nM
RB50 (STK17B): >50 µM
RB50 (JAK2): >50 µM
RB50 (CDK4): >50 µM
RB50 (PRKAB1): >50 µM
RB50 (IRAK3): >50 µM
RB50 (CSNK1E): >50 µM
RB50 (PRKCD): >50 µM
RB50 (PAK2): >50 µM
